{"source": "PubChem BioAssay AID603", "about": "(National Center for Advancing Translational Sciences (NCATS), 2007)", "note": "Several values for one entry are separate records, joined by “and”; a condition that tells them apart may be missing. Equal values may be shown once. This is a selection; strong and weak results do not stand in their true shares. Activity calls are given as the source filed them. The call rests on the fitted dose curve; in most records, active means well fitted curve in the direction sought with a large enough effect; inconclusive means small, poorly fitted or top-dose-only effect; inactive means flat fitted curve, though single readings scatter. Potency means the concentration at half of the fitted maximal effect."}
{"system": "DNA polymerase III holoenzyme (E. coli)", "experiment": "qHTS Assay for Inhibitors of DNA Polymerase III Holoenzyme System", "details": "reconstituted DNA polymerase III holoenzyme replication, biochemical", "experimental": "NIH Molecular Libraries Screening Centers Network [MLSCN]\nNIH Chemical Genomics Center [NCGC]\nAssay Provider: Charles McHenry, University of Colorado\nE. coli DNA polymerase III holoenzyme complex was assayed for DNA production by fluorescent detection of the double-stranded DNA product with PicoGreen dye. The holoenzyme complex was reconstituted from the following purified protein components: DNA Polymerase III, beta subunit processivity factor, SSB single-stranded DNA binding protein, and Primase. Single-stranded, circular M13Gori was used as a substrate with dNTPs and NTPs also supplied to the substrate reagent. Compounds from the NCGC collection were incubated with the holoenzyme mixture for 15 min at room temperature to allow binding to occur, and then the reaction was started by the addition of substrate. […] Reaction progress was measured in a ViewLux CCD imager in fluorescence intensity mode by using 480 nm excitation and 540 nm emission filter set. […]\nThree uL of holoenzyme mixture were dispensed to 1536-well Greiner black solid bottom plates. […] After room temperature incubation for 35 minutes, 1 uL of PicoGreen solution was added to each well and the plates were read 480 nm excitation and 540 nm emission using ViewLux (Perkin-Elmer) High-throughput CCD imager and fluorescence protocol settings. […]"}
{"smiles": "O=c1c(O)c(-c2cc(O)c(O)c(O)c2)oc2cc(O)cc(O)c12", "Potency": "active: 1.58 µM and active: 251 nM"}
